Data reported in US12662497B2, “Benzazepine compounds, preparation method therefor and pharmaceutical use thereof” (Shanghai Senhui Medicine Co., Ltd., priority 2021, dated 2026).

Sequences of proteins named here, by UniProt entry; tags and fusion partners are left off.
UniProt P30518, whole entry: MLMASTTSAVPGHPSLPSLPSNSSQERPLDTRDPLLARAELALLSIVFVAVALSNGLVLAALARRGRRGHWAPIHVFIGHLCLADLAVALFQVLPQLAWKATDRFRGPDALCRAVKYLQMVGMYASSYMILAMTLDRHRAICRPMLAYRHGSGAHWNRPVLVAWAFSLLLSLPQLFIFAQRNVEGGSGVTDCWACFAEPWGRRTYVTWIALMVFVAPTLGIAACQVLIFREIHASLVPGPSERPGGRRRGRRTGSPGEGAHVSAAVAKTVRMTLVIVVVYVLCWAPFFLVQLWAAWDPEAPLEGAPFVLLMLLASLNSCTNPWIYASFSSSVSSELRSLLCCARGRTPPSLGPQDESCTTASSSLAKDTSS

Legend:
[1] = biological target: Arginine vasopressin receptor 2 (AVPR2) (Homo sapiens, UniProt P30518); assay: Arginine vasopressin receptor 2 (AVPR2) receptor cAMP assay in Flpin-CHO-AVPR2 cells; details: arginine vasopressin stimulation
[2] = Pharmacokinetic study in beagles (Test Example 5), intravenous drip and intragastric administration; details: Compound 1b disodium salt 1 mg/kg i.v. drip over 1 h, mean value
[3] = molecule detected Compound 1b disodium salt

IC50 [1]: 47 nM | AUC0-t [2, 3]: 913 ng·h/mL | Cmax [2, 3]: 709 ng/mL | Tmax [2, 3]: 1 h | t1/2 [2, 3]: 0.697 h | AUC0-t ([2]; molecule detected Tolvaptan): 212 ng·h/mL | Cmax ([2]; molecule detected Tolvaptan): 102 ng/mL | Tmax ([2]; molecule detected Tolvaptan): 1.33 h | t1/2 ([2]; molecule detected Tolvaptan): 1.29 h
Structure (SMILES): Cc1ccccc1C(=O)Nc1ccc(C(=O)N2CCCC(OP(=O)(O)O)c3cc(Cl)ccc32)c(C)c1 (stereo not drawn)
